The test system of this experiment is P493 human lymphoma B cells. Kind of experiment: P493 cell proliferation assay. In kind it is cell-based. Conditions: P493-6, read-out: IC50 (growth of P493 cells).

The IC50 is the concentration that gives 50% inhibition. In the case of `Nc1nnc(CCSCCc2nnc(NC(=O)Cc3ccccc3)s2)s1` [Compound 6, N-(5-{2-[2-(5-Amino-[1,3,4]thiadiazol-2-yl)-ethylsulfanyl]-ethyl}-[1,3,4]thiadiazol-2-yl)-2-phenyl-acetamide], the IC50 was around 20 µM.

The record behind these values is publication PMC3539823 (Journal of medicinal chemistry, 2012).
